Here are results for one substance from patent US20190079094A1, “SUBCELLULAR LOCALIZATION OF TARGET ANALYTES” (Beckman Coulter, Inc., priority 2016, published 2019).

In the assay the test system is STATS nuclear translocation in Tregs and other T-cell subsets. The assay can be described thus: IL2 stimulation, nuclear translocation of STATS in T-cell subsets. The assay is classed as cell-based. From the text:
FIG. 10. Analysis of STATS Nuclear Translocation in Tregs Following IL2 Stimulation. A) The gating of different CD25 subsets in the CD4 and CD8 T-cell populations. B) Analysis of the expression of FoxP3 in the different T-cell subsets gated in part A. In this chart, FoxP3 can be seen to be predominantly in the nucleus of the CD4+CD25hi population, which is expected since this is the Treg population. C) The nuclear translocation of STATS following IL2 stimulation in the different CD4 T-cell populations. IL2 stimulation induced maximal STATS translocation most rapidly in the Treg population, peaking by 2.5 min. The remaining CD4 T cells peaked by 10 min, with the CD25+population more strongly stimulated than the CD25low population. D) The nuclear translocation of STATS in the different CD8 T-cell populations. […] The antibody used for STATS staining in this experiment was directed to the whole STATS protein, not to a phosphorylation site.
The protocol for processing whole blood samples is as follows (see FIG. 1 for a workflow): 1) The sample is first mixed 1:1 with fixative, vortexed, and then incubated for 10 minutes. An extra control tube is included for each buffer, which is stained with all antibodies except for the specific signaling or target antibodies being tested in order to subtract the background signal. […] 6) Once stained, the samples are again washed 2× with PBS or wash buffer, resuspended in PBS+0.5% PFA, and read on a flow cytometer.
After data acquisition, the samples are gated, compensated, and analyzed as standard flow cytometry samples. […] For example, if staining for the subcellular distribution of FoxP3, where the Background MFIs for the Cytoplasm and Whole Cell are 1.5 and the raw FoxP3 signal is 3.5 and 31.5 for the Cytoplasm and Whole Cell, respectively, then the Cytoplasmic MFI would be calculated to be 2 (i.e., 3.5 (raw)−1.5 (background)=2) and the Nuclear MFI would be calculated to be 28 (i.e., 31.5 (raw)−1.5 (background)−2 (Cytoplasm)=28). […]

“IL2: cytokine used to stimulate STAT5 nuclear translocation in T cells”: the “time of peak STATS nuclear translocation” value by setting is: (CD4+CD25+ cells) 10 min; (CD8+CD25+ cells) not above 10 min; (remaining CD4 T cells (CD25+ and CD25low)) not above 10 min.
